# Reference: BindingDB's records for doi:10.1021/jm030505a (Abbott Laboratories, 2004)
# Assay: In vitro effective concentration tested on HEK293 cells co-transfected with ferret Dopamine receptor D2 using FLIPR assay
smiles,measurement,value
CN1CCc2cccc3c2[C@H]1Cc1ccc(O)c(O)c1-3 [APOKYN],EC50,1.8 nM
